The results in this text go back to PubChem BioAssay AID624467 (The Scripps Research Institute Molecular Screening Center, 2012).

Sequences of proteins named here, by UniProt entry; tags and fusion partners are left off.
UniProt Q96RJ0, whole entry: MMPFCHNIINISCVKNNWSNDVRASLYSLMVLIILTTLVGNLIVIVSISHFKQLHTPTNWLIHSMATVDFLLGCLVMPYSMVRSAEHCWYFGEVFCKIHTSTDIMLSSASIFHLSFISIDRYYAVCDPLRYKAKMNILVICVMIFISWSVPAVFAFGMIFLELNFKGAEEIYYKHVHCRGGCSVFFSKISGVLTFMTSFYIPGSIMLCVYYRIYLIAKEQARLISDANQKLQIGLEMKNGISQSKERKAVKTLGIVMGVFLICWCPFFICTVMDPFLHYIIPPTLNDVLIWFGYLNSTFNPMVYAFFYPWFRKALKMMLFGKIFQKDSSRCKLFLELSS

Structures are written as SMILES. The list shows a part of the results, in another mix than the full data. Active and inactive are the calls of the source.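 How the source made its calls: active means activation above the mean activation of all test compounds in the run plus 3 SD (cut at about 38% in these data); inactive means the rest.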

The target in this assay is Trace amine-associated receptor 1 (Homo sapiens) (UniProt Q96RJ0). As to the kind of experiment: activators of TAAR1 calcium mobilization – Fluo-8 calcium fluorescence, CHO RD-HGA16 cells, primary screen (AID 624467). The note with it: CHO RD-HGA16 TAAR1, Fluo-8 calcium fluorescence; at 3 µM; hits give high values; vehicle wells 0%, saturating PEA agonist 100%. For orientation: A change in cytosolic calcium serves as a functional read-out for many receptors and channels.
`O=C(NCC1(N2CCOCC2)CCCCC1)c1cc2ccccc2o1`: the activation was inactive: -3.82%.

With `Cc1cc(C)cc(N(C(=O)c2ccccc2)C2CCN(C(=O)OC(C)(C)C)CC2)c1`, the activation is inactive: 0.23%. Consider `O=c1[nH]c2ccccc2n1C1CCN(C(c2ccccc2OC(F)(F)F)c2nnnn2C2CCCCC2)CC1` (stereo unspecified), for which the activation is inactive: 7.5%.

For the compound `O=C(NCC1(N2CCCCC2)CCCCC1)c1ccc(Cl)nc1`, the activation was inactive: 3.08%. Under `CCCCn1nnnc1C(c1ccc(OC)cc1)N1CCC(n2c(=O)[nH]c3ccccc32)CC1` (stereo unspecified) stands inactive: 13.6%. The value for `CCOC(=O)N1CCC(Nc2ccc(OC)cc2)CC1` was inactive: 2.64%. The value for `COc1ccc(Cl)cc1C(=O)NCC1(N2CCOCC2)CCCCC1` was inactive: -0.03%; that for `O=C(OC1CN2CCC1CC2)C1c2ccccc2Oc2ccccc21` (stereo unspecified) was inactive: 1.2%.

Take `O=c1[nH]c2ccccc2n1C1CCN(C(c2cc3ccccc3o2)c2nnnn2C2CCCCC2)CC1` (stereo unspecified): the activation was inactive: 6.6%. On to `N#CC1(Nc2ccccc2)CCN(Cc2ccccc2)CC1`, for which the activation was inactive: 0.46%. Take `O=C(NCC1(N2CCCCC2)CCCCC1)c1ccc(Cl)s1`: the activation is inactive: -0.08%.

As to `CCCCn1nnnc1C(c1cccs1)N1CCC(n2c(=O)[nH]c3ccccc32)CC1` (stereo unspecified), the activation was inactive: 14%. The value for `O=C(NCC1(N2CCCCC2)CCCCC1)c1cccs1` was inactive: 1.22%; that for `CCCCn1nnnc1C(CC)N1CCC(n2c(=O)[nH]c3ccccc32)CC1` (stereo unspecified) was inactive: 21.3%. Regarding `O=C(NCC1(N2CCCCC2)CCCCC1)c1ccc(=O)[nH]c1`, the activation is inactive: 2.32%. The value for `CCC(c1nnnn1C1CCCC1)N1CCC(n2c(=O)[nH]c3ccccc32)CC1` (stereo unspecified) was inactive: 8.44%.

Regarding `CC(C)(C)OC(=O)N1CCC(N(C(=O)c2ccccc2)c2ccc(F)cc2)CC1`, the activation is inactive: -1.2%. Regarding `COc1ccc(C(=O)NCC2(N3CCCCC3)CCCCC2)c(OC)c1OC`, the activation is inactive: -0.53%.

Consider `COc1ccc(C(=O)NCC2(N3CCCCC3)CCCCC2)cc1`, for which the activation is inactive: -2.88%.

Turning to `Cc1cccc(NC2(C#N)CCN(Cc3ccccc3)CC2)c1`, the activation is inactive: 1.66%. Under `CSc1ccccc1C(=O)NCC1(N2CCCCC2)CCCCC1` stands inactive: -1.38%.
